Results taken from paper PMC7902086 (Toxicology letters, 2019).

Sequences of proteins named here, by UniProt entry; tags and fusion partners are left off.
UniProt P10635, whole entry: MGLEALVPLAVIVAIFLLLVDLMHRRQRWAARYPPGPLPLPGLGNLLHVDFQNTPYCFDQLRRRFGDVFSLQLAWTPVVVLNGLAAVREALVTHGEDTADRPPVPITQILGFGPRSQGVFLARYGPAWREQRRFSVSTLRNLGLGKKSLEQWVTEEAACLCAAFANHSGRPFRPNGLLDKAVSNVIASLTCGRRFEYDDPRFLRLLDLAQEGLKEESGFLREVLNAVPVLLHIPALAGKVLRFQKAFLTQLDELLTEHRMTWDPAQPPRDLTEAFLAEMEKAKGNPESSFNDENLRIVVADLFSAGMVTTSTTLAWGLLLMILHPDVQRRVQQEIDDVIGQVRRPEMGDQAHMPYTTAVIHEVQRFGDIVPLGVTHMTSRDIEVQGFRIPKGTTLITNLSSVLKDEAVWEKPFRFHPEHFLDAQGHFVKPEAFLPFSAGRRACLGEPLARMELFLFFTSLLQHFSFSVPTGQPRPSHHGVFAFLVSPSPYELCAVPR
UniProt P33261, whole entry: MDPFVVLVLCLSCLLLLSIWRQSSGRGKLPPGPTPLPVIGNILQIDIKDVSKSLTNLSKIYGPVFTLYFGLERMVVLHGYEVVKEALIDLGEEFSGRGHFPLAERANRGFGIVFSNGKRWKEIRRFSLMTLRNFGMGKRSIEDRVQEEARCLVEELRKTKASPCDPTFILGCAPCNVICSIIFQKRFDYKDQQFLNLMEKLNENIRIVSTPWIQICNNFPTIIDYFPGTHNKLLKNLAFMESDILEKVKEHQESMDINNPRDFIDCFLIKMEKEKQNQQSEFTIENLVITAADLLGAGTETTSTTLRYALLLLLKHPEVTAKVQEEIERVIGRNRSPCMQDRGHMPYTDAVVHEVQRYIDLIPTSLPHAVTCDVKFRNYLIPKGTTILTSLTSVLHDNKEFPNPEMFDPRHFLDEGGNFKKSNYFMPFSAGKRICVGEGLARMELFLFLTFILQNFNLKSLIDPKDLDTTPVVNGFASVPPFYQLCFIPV

Key:
CYP2D6 [1] = target: T1, CYP2D6 (Homo sapiens, UniProt P10635); test: Determination of enzyme inhibition constant; assay type: in vitro ADME; settings: HLM, dextromethorphan; best fit by AIC, Eadie-Hofstee plot
CYP3A4/5 [2] = test: CYP450 inhibition assay, midazolam 1′-hydroxylase in human liver microsomes; settings: read-out: IC50, CYP3A4/5 Midazolam 1′-hydroxylase; human liver microsomes 0.1 mg/mL; mean of triplicate
CYP3A4/5 [3] = test: CYP450 inhibition assay, testosterone 6β-hydroxylase in human liver microsomes; settings: read-out: IC50, CYP3A4/5 Testosterone 6β-hydroxylase; human liver microsomes 0.1 mg/mL; mean of triplicate
CYP2C19 = CYP2C19 (Homo sapiens, UniProt P33261); test: CYP450 inhibition assay, S-mephenytoin 4′-hydroxylase in human liver microsomes; settings: read-out: IC50, CYP2C19 S-Mephenytoin 4′-hydroxylase; human liver microsomes 0.1 mg/mL; mean of triplicate
CYP2D6 [4] = target: T1, CYP2D6; test: Prediction of drug-drug interaction
[5] = MTG High (12.05 μM), Desipramine
[6] = MTG High (12.05 μM), Dextromethorphan
[7] = MTG High (12.05 μM), Metoprolol
[8] = MTG Low (0.041 μM), Desipramine
[9] = MTG Low (0.041 μM), Dextromethorphan

Substance | type of inhibition of CYP2D6 activity (CYP2D6 [1]) | IC50 (CYP3A4/5 [2]) [µM] | IC50 (CYP3A4/5 [3]) [µM] | IC50 (CYP2C19) [µM] | Fold increase in exposure (AUCinhibited/AUCcontrol), Cmax total (CYP2D6 [4]; [5]) | Fold increase in exposure (AUCinhibited/AUCcontrol), fu x Cmax (CYP2D6 [4]; [5]) | Fold increase in exposure (AUCinhibited/AUCcontrol), Cmax total (CYP2D6 [4]; [6]) | Fold increase in exposure (AUCinhibited/AUCcontrol), fu x Cmax (CYP2D6 [4]; [6]) | Fold increase in exposure (AUCinhibited/AUCcontrol), Cmax total (CYP2D6 [4]; [7]) | Fold increase in exposure (AUCinhibited/AUCcontrol), fu x Cmax (CYP2D6 [4]; [7]) | Fold increase in exposure (AUCinhibited/AUCcontrol), Cmax total (CYP2D6 [4]; [8]) | Fold increase in exposure (AUCinhibited/AUCcontrol), fu x Cmax (CYP2D6 [4]; [8]) | Fold increase in exposure (AUCinhibited/AUCcontrol), Cmax total (CYP2D6 [4]; [9]) | Fold increase in exposure (AUCinhibited/AUCcontrol), fu x Cmax (CYP2D6 [4]; [9]) | Fold increase in exposure (AUCinhibited/AUCcontrol), Cmax total (CYP2D6 [4]; MTG Low (0.041 μM), Metoprolol) | Fold increase in exposure (AUCinhibited/AUCcontrol), fu x Cmax (CYP2D6 [4]; MTG Low (0.041 μM), Metoprolol)
corynantheidine | competitive type of reversible inhibition | 7.3 | > 45 | > 45 | – | – | – | – | – | – | – | – | – | – | – | –
mitragynine [MTG] | competitive type of reversible inhibition | 11.4 | > 45 | 10.5 | 5.70 | 1.19 | 11.95 | 1.22 | 3.75 | 1.17 | 1.03 | 1.00 | 1.04 | 1.00 | 1.03 | 1.00
